# Test results: PubChem BioAssay AID504327 (National Center for Advancing Translational Sciences (NCATS), 2011)
# Chains of the proteins cited; added tags and fusions are not shown.
# UniProt Q92830, whole entry, looked up: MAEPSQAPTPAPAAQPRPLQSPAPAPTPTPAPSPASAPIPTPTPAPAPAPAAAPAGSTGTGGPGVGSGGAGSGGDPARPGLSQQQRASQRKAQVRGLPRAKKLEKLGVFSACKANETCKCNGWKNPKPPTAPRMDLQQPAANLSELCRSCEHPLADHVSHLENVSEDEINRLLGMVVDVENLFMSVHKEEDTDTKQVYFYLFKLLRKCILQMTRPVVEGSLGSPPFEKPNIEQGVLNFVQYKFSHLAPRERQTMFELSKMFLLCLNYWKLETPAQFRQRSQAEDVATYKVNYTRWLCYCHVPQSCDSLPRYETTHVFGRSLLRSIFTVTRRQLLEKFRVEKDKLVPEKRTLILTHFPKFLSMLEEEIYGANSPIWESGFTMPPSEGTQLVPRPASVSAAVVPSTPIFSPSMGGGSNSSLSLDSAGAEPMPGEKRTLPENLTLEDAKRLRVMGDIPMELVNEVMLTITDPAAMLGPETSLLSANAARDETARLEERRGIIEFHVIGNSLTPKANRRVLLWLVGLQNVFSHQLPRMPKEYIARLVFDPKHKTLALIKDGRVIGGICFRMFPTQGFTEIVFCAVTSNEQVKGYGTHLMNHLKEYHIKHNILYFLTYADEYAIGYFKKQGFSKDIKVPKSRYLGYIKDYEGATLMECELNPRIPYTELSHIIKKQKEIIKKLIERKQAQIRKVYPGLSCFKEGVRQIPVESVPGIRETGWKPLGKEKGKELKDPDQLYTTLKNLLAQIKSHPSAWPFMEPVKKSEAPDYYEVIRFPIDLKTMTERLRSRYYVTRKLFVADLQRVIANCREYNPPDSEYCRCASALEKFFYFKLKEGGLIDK
# The entries are a selection whose mix differs from that of the whole data set. Records with an inconclusive call do not appear. The source made the active and inactive calls. Calls follow the shape of the dose curve; as a rule, active = well fitted inhibition curve with a large enough effect; inconclusive = small, poorly fitted or top-dose-only effect, or another doubt; inactive = no such curve, though single readings can be large or run the other way.
# Target: Histone acetyltransferase KAT2A (Homo sapiens) (UniProt Q92830)
# Experiment: qHTS Assay for Inhibitors of GCN5L2
# Conditions: GCN5L2 HAT assay, ThioGlo1 CoA-SH fluorescence
# Source text: Histone acetyltransferase (HAT) enzymes transfer a […] group from acetyl-coenzyme A to the epsilon-amino group of conserved lysine residues of N-terminal histone tails. Acetylation results in charge neutralization of this positively charged amino acid, decreasing interactions with the […] backbone and making the DNA more accessible for transcription. HATs have been recognized as an emerging drug target for treatment of cancer, diabetes, asthma, chronic obstructive pulmonary disease, cardiac disease, and viral infection. […]
# A quantitative high throughput screen was developed to identify small molecule inhibitors. […]
# [2] Yasgar, et al. Compound Management for Quantitative High-Throughput Screening. […]
# [3] Inglese, et al. Quantitative high-throughput screening: a titration-based approach that efficiently identifies biological activities in large chemical libraries. […]
# To each well of a 1,536w plate, 3ul of GCN5L2 (final concentration 20nM, in 50mM HEPES, 0.1mM EDTA (pH 7.5), 0.01% Tween-20 buffer) are added using a Kalypsys dispenser. […] Plates are read immediately on the ViewLux (PerkinElmer) (Ex340nm/Em540nm) for a 0 min read, incubated for 20 min at room temperature, and read again on the ViewLux with the same settings. The initial read was carried out to identify compounds that are potentially fluorescent.
# Potency is read from the fitted curve at half-maximal effect.
row,Structure (SMILES),Potency
1,CC(CCC(C)C(C)(C)C)[C@@H]1CC[C@H]2C3C[C@H](OS(O)(=S)=S)[C@H]4C[C@H](OS(O)(=S)=S)[C@@H](OS(O)(=S)=S)C[C@]4(C)[C@H]3CC[C@]12C (some centres not stated) (tested in a mixture with another compound),active: 2.82 µM
2,COc1ccc(Nc2nc(Nc3ccc(OC)cc3)nc(SC3=NCCS3)n2)cc1,active: 35.5 µM
